According to ChEMBL document CHEMBL4613325, “Design of Development Candidate eFT226, a First in Class Inhibitor of Eukaryotic Initiation Factor 4A RNA Helicase” (J Med Chem, 2020):

Experiment: Efflux ratio in human Caco2 cells at 10 uM by LC/MS/MS analysis
Settings: Caco-2

COc1cc2c(c(OC)n1)[C@]1(O)[C@H](O)[C@H](CN(C)C)[C@@H](c3ccccc3)[C@]1(c1ccc(C#N)cc1)O2 [ZOTATIFIN]
efflux ratio at 10 µM: 4
